Structures are written as SMILES.

By UniProt entry, the sequences of proteins in these tests, tags left out. Where a name states a change or a piece, a line headed by the entry shows the natural chain unless it says otherwise.
UniProt P48146: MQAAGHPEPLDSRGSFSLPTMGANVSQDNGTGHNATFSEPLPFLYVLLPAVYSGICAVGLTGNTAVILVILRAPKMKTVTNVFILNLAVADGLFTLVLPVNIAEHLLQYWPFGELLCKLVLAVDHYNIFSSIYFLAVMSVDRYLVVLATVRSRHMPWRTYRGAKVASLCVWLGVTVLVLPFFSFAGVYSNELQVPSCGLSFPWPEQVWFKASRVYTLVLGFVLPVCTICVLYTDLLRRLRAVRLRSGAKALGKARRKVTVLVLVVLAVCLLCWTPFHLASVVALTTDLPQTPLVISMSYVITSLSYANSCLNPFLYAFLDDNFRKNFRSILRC

The target of one assay is T1, GPR7 (Homo sapiens, UniProt P48145).
T1 construct: expressed in transfected cells; host or cells: HEK293/CRE-BLA cells (AURORA), expression vector pIRES-hygro (Clontech)
T1 sequence (P48145 1-328): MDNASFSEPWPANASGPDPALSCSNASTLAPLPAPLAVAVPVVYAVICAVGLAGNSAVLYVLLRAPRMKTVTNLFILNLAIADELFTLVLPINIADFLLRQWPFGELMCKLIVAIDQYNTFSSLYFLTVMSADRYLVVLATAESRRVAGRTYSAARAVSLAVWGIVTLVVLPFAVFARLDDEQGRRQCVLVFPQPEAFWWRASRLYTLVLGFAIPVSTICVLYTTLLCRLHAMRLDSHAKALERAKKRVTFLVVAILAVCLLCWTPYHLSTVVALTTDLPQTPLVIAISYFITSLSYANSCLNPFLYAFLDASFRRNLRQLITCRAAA
Kind of assay: Binding inhibition test with [125I]-[Phe2]-hNPW(1-23), GPR7 membrane preparation. The settings on record: Table 2, membrane preparation of cells expressing GPR7. The procedure:
(§1) One nmol of [Phe2]-hNPW(1-23) (prepared in Synthesis Example 19) was dissolved in 5 µL of anhydrous DMSO, and the solution was mixed with 0.1M nickel chloride. Then, the mixture was mixed with 10 µL of a 0.00 1 % aqueous solution of hydrogen peroxide, 10 µL of an enzyme solution (lactoperoxidase (Sigma) adjusted to 10 µg/mL with a 0.1M HEPES buffer solution), and 37 Mbq/10 µL of Iodine-125 (Amersham), whereafter the resulting mixture was reacted for 60 minutes at room temperature. The reaction was terminated with the addition of 10 µL of 1% sodium azide, and then a radiolabeled peptide fraction was collected by a PD-10 gel filtration column (Amersham) to obtain [^125I]-[Phe2]-hNPW(1-23).
(§2) A cDNA sequence coding for human GPR7 or GPR8 [see Genomics, vol. 28, p. 84 (1995)] was amplified by the PCR method, and cloned using the expression vector pIRES-hygro (Clontech). […]
(§3) A membrane preparation prepared from the cells expressing GPR7 or GPR8 was incubated for 1 hour at room temperature in an assay buffer solution (25 mM Tris buffer solution, 150 mM NaCl, pH 7.4) together with a test compound and 28,000 cpm of [^125I]-[Phe2]-hNPW(1-23). […] After washing with 25 mM Tris buffer solution (pH 7.4), radioactivity on the glass filter was measured. […]

A further assay has as its target T2, GPR8 (Homo sapiens, UniProt P48146).
T2 construct: expressed in transfected cells; host or cells: HEK293/CRE-BLA cells (AURORA), expression vector pIRES-hygro (Clontech)
Kind of assay: Binding inhibition test with [125I]-[Phe2]-hNPW(1-23), GPR8 membrane preparation. The settings on record: Table 2, membrane preparation of cells expressing GPR8. The procedure: as §1, §2, §3

As for `CSCC[C@H](NC(=O)[C@H](CC(C)C)NC(=O)[C@H](CC(C)C)NC(=O)CNC(=O)[C@H](C)NC(=O)[C@H](C)NC(=O)[C@H](CCCNC(=N)N)NC(=O)CNC(=O)[C@@H](NC(=O)[C@@H](NC(=O)[C@H](Cc1cnc[nH]1)NC(=O)[C@H](Cc1ccc(O)cc1)NC(=O)[C@H](CCCNC(=N)N)NC(=O)[C@@H]1CCCN1C(=O)[C@H](CO)NC(=O)[C@H](C)NC(=O)[C@@H](NC(=O)[C@H](Cc1cnc[nH]1)NC(=O)[C@H](CCCCN)NC(=O)[C@H](Cc1ccc(O)cc1)NC(=O)[C@@H](N)Cc1c[nH]c2ccccc12)C(C)C)[C@@H](C)O)C(C)C)C(=O)NCC(=O)N[C@@H](CC(C)C)C(=O)N[C@@H](CCCNC(=N)N)C(=O)N[C@@H](CCCNC(=N)N)C(=O)N[C@@H](CO)C(=O)N1CCC[C@H]1C(=O)N[C@@H](Cc1ccc(O)cc1)C(=O)N[C@@H](CC(C)C)C(=O)N[C@@H](Cc1c[nH]c2ccccc12)C(=O)O` [Synthesis Example 1, reference compound], the IC50 (commonly the midpoint of a concentration-inhibition curve) at GPR7 is 0.36 nM; at GPR8, 0.043 nM.

Values taken from patent EP1816136A1, “GPR7-SELECTIVE LIGAND AND USE THEREOF” (BANYU PHARMACEUTICAL CO., LTD., priority 2004, dated 2006).
